In the experiment the target is 5-hydroxytryptamine receptor 2A (Homo sapiens, UniProt P28223). The experiment in a line: Agonist activity at human recombinant 5HT2A receptor expressed in Swiss mouse 3T3 cells assessed as induction of calcium mobilization by FLIPR assay. It counts as functional, cell-based.

Sequences of proteins named here, by UniProt entry; tags and fusion partners are left off.
UniProt P28223, whole entry: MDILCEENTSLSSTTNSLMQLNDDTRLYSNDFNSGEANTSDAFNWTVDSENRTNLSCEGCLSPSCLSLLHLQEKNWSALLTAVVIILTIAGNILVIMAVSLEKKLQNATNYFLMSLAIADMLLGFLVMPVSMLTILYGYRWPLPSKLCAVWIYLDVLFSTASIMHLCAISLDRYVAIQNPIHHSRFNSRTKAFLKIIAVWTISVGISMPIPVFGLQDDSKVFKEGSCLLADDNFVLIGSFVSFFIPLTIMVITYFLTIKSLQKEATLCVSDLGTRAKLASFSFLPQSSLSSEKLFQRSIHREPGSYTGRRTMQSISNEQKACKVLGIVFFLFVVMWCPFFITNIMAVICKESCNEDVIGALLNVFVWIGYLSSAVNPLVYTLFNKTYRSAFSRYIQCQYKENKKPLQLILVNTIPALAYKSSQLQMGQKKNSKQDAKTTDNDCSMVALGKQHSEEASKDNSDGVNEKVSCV

The text below walks through data of ChEMBL document CHEMBL1156026, “Design and synthesis of pyridazinone-based 5-HT(2C) agonists” (Bioorg Med Chem Lett, 2009).

The structures appear in SMILES notation.

With `Clc1cccc(N2CCNCC2)c1` [CHLOROPHENYLPIPERAZINE], the EC50 was 0.167 µM.
